From patent US11366102B2, “Spectographic metabolite-signature for identifying a subject's susceptibility to drugs” (Olaris, Inc., priority 2018, dated 2022)

Columns and labels:
[1] = system: HER2+ metastatic breast cancer; conditions: after about 1 year of PFS; cited from earlier work
[2] = system: HER2+ metastatic breast cancer; assay: Progression free survival of HER2+ mBC patients treated with trastuzumab and chemotherapy; format: in vivo, human

Substance: Trastuzumab
- Patients who stop responding to therapy [1]: approximately 75%
- Median PFS ([2]; 23 HER2+ mBC patients treated with trastuzumab and chemotherapy): 301 days
- Number of Non-responders (NR), early progressors ([2]; PFS<301 days, all 23 patients): 13
- Number of Responders (R), late progressors ([2]; PFS≥301 days, all 23 patients): 10
- Number of R patients, first line therapy ([2]; sixteen patients who received trastuzumab as part of first line therapy): 7 patients
